Laboratory results from patent publication US5589513A, “Pharmaceutical composition and process for the preparation thereof” (Chinoin Gyogyszer es Vegyeszeti Termekek Gyara Rt., priority 1991, dated 1996).
Several values for one entry are separate records, joined by “and”; a condition that tells them apart may be missing. Equal entries are not always repeated. Structures can show the parent of a compound that is named as a salt.

What was measured:
[1] = system: MAO-B activity of the platelets; test: Inhibition of platelet MAO-B activity after per os and transdermal application; assay type: in vivo; conditions: pigs, 14C-PEA; for inhibition of MAO-B activity of the platelets (%), mean: n = 3
Experimental: (§1) MAO activity was measured radiometrically according to the methods of Wurtman and Axelrod [Biochem. Pharmacol. 12. 1414-19; (1963)] with a slight modification [K. Magyar in: Monoamine Oxidases and their Selective Inhibition, Ed.: K. Magyar, Pergamon Press, Akademiai Kiado, Budapest, 11-21; (1980)].

[2] = system: NA uptake, rat brain synaptosomas, HYPOTHALAMUS; test: In vitro NA uptake inhibition on brain synaptosomes (hypothalamus); assay type: biochemical
[3] = Distribution of labelled deprenyl and p-fluoro-deprenyl in brain regions and plasma after oral administration; assay type: in vivo; conditions: rats
Text: The simultaneous presence and the equal quantities of the two labels indicate the unchanged molecule (the data relate to the molar concentrations calculated on the basis of the two labels). Because of the fast change observed in the injected ^3 H/^14 C ratio in the tissues, our experiments indicate a significant metabolite formation (amphetamine, methylamphetamine, p-fluoro-methylamphetamine and p-fluoro-amphetamine) and their presence in the brain.

[4] = system: DA uptake, rat brain synaptosomas, STRIATUM; test: In vitro DA uptake inhibition on brain synaptosomes (striatum); assay type: biochemical
MAO-B [5] = test: Inhibition of MAO activity in liver, 14C-PEA substrate; assay type: in vivo, domestic pig; conditions: pig; p. os 96 h; UG-111 48 h (patch 24 h); UG-167 72 h (patch 48 h); UG-191 96 h (patch 72 h)
Experimental: as §1

MAO-B [6] = test: Inhibition of MAO activity in brain nucleus free homogenates, 14C-PEA substrate; assay type: in vivo, domestic pig; conditions: pig; p. os 96 h; UG-111 48 h (patch 24 h); UG-167 72 h (patch 48 h); UG-191 96 h (patch 72 h)
Experimental: as §1

## C#CCN(C)[C@H](C)Cc1ccccc1 [(-)-deprenyl, (-)N-(-1-phenyl-isopropyl)-N-methyl-propinylamine-hydrochloride]
[1]; 3 h, doses as printed per mode of application
  inhibition of MAO-B activity of the platelets (%), mean: 95.15%
[1]; 3 h, per os 10 mg, UG-111 10 mg 24 h, UG-167 20 mg 48 h, UG-191 30 mg 72 h
  inhibition of MAO-B activity of the platelets (%), single animals: 97.77% and 92.52% and 0.0%
[1]; 6 h, doses as printed per mode of application
  inhibition of MAO-B activity of the platelets (%), single animals: 86.04% and 96.51% and 95.63%
[1]; 6 h
  inhibition of MAO-B activity of the platelets (%), mean: 92.73 ± 3.35%
[1]; 24 h, doses as printed per mode of application
  inhibition of MAO-B activity of the platelets (%), single animals: 100.00%
[1]; 24 h
  inhibition of MAO-B activity of the platelets (%), mean: 100 ± 0.0%
[1]; 48 h, doses as printed per mode of application
  inhibition of MAO-B activity of the platelets (%), single animals: 82.67% and 70.48% and 69.93%
[1]; 48 h
  inhibition of MAO-B activity of the platelets (%), mean: 74.36 ± 4.16%
[1]; 72 h, doses as printed per mode of application
  inhibition of MAO-B activity of the platelets (%), single animals: 72.32% and 65.63% and 50.17%
[1]; 72 h
  inhibition of MAO-B activity of the platelets (%), mean: 52.71 ± 6.56%
[1]; 96 h, doses as printed per mode of application
  inhibition of MAO-B activity of the platelets (%), single animals: 0.0%
[2]
  IC50: 51 µM
[3]
  residence time of the unchanged molecule in the brain: short residence time
[3]; deprenyl 1.5 mg/kg, p-fluoro-deprenyl 10 mg/kg
  time in which the unchanged compound was absorbed: 15 min
[4]
  IC50: 100 µM
MAO-B [5]
  inhibition of MAO activity (%) liver 14C-PEA: 41.04 ± 7.62%
MAO-B [6]
  inhibition of MAO activity (%) brain 14C-PEA: 73.22 ± 8.13%

## C#CCN(C)[C@@H](C)Cc1ccccc1 [(+)-DEPR.]
[2]
  IC50: 17 µM
[4]
  IC50: 24 µM

## CN[C@H](C)Cc1ccccc1 [(-)-metamphetamine]
[2]
  IC50: 3.5 µM
[4]
  IC50: 42 µM

## CN[C@@H](C)Cc1ccccc1 [(+)-metamphetamine]
[2]
  IC50: 0.35 µM
[4]
  IC50: 0.6 µM
